The values below come from paper PMC4153739 (Biochemistry, 2012).

The test relates to four NR2 NMDA receptor subtypes (NR2A, NR2B, NR2C, NR2D with NR1-2b). The test is classed as cell-based, rat.

Consider `CC(C)C[C@H](NC(=O)[C@H](CC(C(=O)O)C(=O)O)NC(=O)[C@H](CCCNC(=N)N)NC(=O)[C@H](C)NC(=O)[C@H](Cc1ccccc1)NC(=O)[C@H](CC(C(=O)O)C(=O)O)NC(=O)[C@@H]1C[C@@H](O)CN1C(=O)[C@H](C)NC(=O)[C@H](CCCCN)NC(=O)[C@H](CC(C(=O)O)C(=O)O)NC(=O)[C@H](C)NC(=O)[C@H](Cc1ccc(O)cc1)NC(=O)[C@H](CC(C(=O)O)C(=O)O)NC(=O)[C@H](CC(C(=O)O)C(=O)O)NC(=O)[C@H](CCC(=O)O)NC(=O)CN)C(=O)N[C@@H](C)C(=O)N[C@@H](CC(N)=O)C(N)=O` [ConRl-B[L5Y]], for which the “activity on the four NR2 NMDA receptor subtypes, in words” value is listed as “very similar to native conRl-B”.
